Test results from patent US6692753B2, “Potentiation of the immune response” (priority 1997, dated 2004).

The chains behind the UniProt entries cited, without tags or fusion partners.
UniProt P27487, whole entry, species assumed: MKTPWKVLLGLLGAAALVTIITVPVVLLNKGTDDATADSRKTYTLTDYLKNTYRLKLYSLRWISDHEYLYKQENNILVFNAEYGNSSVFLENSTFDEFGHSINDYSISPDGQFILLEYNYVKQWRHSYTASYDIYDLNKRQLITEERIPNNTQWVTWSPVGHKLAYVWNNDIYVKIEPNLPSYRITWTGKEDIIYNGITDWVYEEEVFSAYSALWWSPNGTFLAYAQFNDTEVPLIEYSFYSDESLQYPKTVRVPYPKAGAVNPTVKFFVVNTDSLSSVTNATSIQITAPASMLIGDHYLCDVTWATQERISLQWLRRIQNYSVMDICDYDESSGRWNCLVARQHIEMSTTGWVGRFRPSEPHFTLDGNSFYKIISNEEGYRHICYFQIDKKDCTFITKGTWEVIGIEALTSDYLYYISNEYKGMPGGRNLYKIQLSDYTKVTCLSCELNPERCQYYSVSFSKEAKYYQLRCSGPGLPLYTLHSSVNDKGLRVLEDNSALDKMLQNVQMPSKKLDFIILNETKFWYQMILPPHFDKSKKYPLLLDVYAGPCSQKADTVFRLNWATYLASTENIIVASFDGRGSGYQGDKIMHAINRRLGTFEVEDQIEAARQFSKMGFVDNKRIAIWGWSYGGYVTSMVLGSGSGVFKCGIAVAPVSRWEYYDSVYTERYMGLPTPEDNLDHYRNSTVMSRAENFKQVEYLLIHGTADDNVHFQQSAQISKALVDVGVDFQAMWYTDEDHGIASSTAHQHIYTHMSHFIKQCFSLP

Target: purified DPPIV (i.e., CD26) (Homo sapiens, UniProt P27487)
Assay: Enzymatic activity of purified DPPIV, fluorescent cleavage of Ala-ProAFC
Format: biochemical
Conditions: varying concentrations

In the case of `CC(C)[C@H](N)C(=O)N1CCC[C@H]1B(O)O` [Val-boroPro], the “inhibition of enzymatic activity (AFC release from Ala-ProAFC)” value is reported as “inhibited”.
